Experimental data as given in US20050049294A1, “Methods of using [3.2.0] heterocyclic compounds and analogs thereof” (priority 2003, published 2005).

System: Jurkat cells
Assay: Cytotoxicity against Jurkat cells
Assay type: cell-based
Settings: Homo sapiens, 48 h

SMILES: C[C@@]12OC(=O)[C@]1([C@@H](O)[C@@H]1C=CCCC1)NC(=O)[C@@H]2CCCl [Formula II-16, Salinosporamide A]
- EC50: 10 nM
